Measurements: ChEMBL document CHEMBL1122944, “The histamine H2 receptor agonist impromidine: synthesis and structure-activity considerations” (J Med Chem, 1985)

Amino acid sequences for entries named in this document (tags omitted).
UniProt P47747, whole entry, looked up: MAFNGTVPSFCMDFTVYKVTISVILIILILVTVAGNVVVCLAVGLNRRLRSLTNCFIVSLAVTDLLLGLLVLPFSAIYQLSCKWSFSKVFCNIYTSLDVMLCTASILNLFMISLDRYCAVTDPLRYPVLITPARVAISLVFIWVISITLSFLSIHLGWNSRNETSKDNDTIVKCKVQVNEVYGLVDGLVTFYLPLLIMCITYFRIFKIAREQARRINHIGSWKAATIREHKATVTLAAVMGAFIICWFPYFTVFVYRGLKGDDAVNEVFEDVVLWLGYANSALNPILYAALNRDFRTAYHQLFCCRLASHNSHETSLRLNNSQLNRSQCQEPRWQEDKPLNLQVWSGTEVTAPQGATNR

Each compound was assayed against Histamine H2 receptor (Cavia porcellus, UniProt P47747) (assay: Antagonistic activity against H2 receptor in guinea pig.).
Type: functional

SMILES | pA2
Cc1[nH]cnc1CSCC/N=C(\N)NCCCc1nccs1.O=[N+]([O-])c1cc([N+](=O)[O-])c(O)c([N+](=O)[O-])c1 | 6.5
Cc1[nH]cnc1CSCC/N=C(\N)NCCSCc1nccs1.O=[N+]([O-])c1cc([N+](=O)[O-])c(O)c([N+](=O)[O-])c1 | 6.11
C/N=C(\N)NCCSCc1nccs1.O=[N+]([O-])c1cc([N+](=O)[O-])c(O)c([N+](=O)[O-])c1 | 4.96
